{"source": "paper PMC9493007", "tested_on": "Nc1ncnc2c1ncn2[C@@H]1O[C@H](COP(=O)(O)OP(=O)(O)OP(=O)(O)O)[C@@H](O)[C@H]1O", "assay": "purified protein", "conditions": "20 mM Tris pH 8.0, 100 mM NaCl, 10 mM MgCl2, 1 mM DTT, 0.025% BSA, 5% glycerol, 5 µM protein, Hill fit, cooperative"}
{"substance": "YsaN (Yersinia enterocolitica subsp. enterocolitica 8081)", "values": [{"measurement": "K0.5", "value": "758.7 ± 84.35", "unit": "µM"}]}
